One molecule from patent publication US20160024092A1, “INTRAVENOUS FORMULATIONS OF NEUROKININ-1 ANTAGONISTS” (OPKO Health, Inc., priority 2009, published 2016) can be followed below.

One may read the half-life as how long it takes for the measured level to halve. A low value points to fast loss.

The series can be described thus: Blood levels and half life of Compound 1 after intravenous administration. The note with it: in vivo.

Molecule `C[C@@H](OC[C@@]1(c2ccccc2)CC[C@]2(CCC(=O)N2)CN1)c1cc(C(F)(F)F)cc(C(F)(F)F)c1` [Compound 1, (5S,8S)-8-[{(1R)-1-(3,5-Bis-(trifluoromethyl)phenyl)-ethoxy}-methyl]-8-phenyl-1,7-diazaspiro[4.5]decan-2-one] gave a half-life of 180 h.
